Earlier results on 1 compound are cited in PMC1892056, “Barusiban suppresses oxytocin-induced preterm labour in non-human primates” (BMC Pregnancy and Childbirth, 2007).

Structures are written as SMILES.

This data set relates to pregnant cynomolgus monkeys. Further details: method as in PMID 16914691. The note with it: fenoterol 3 μg kg^-1 h^-1 continuous infusion; OT control about fourfold increase. The source says:
Background Preterm labour (PTL) is a major cause of neonatal mortality and morbidity, and oxytocin (OT) antagonists are potential tocolytics. Atosiban (TRACTOCILE) is a mixed vasopressin V1A/OT antagonist registered for acute treatment of PTL in Europe. […] Barusiban is a selective OT antagonist which has reached clinical development. A monkey model with OT-induced PTL was developed to compare barusiban and atosiban. In addition, the feasibility for long-term treatment of PTL with barusiban was explored.

As for `CC(Cc1ccc(O)cc1)NCC(O)c1cc(O)cc(O)c1` (stereo not shown) [fenoterol, reference compound], the “Increase in overall IUP during OT infusion” value was “increased approximately threefold”.
